Laboratory results: US5939429A, “Cardiovascular uses of cannabinoid compounds” (Virginia Commonwealth University, priority 1998, dated 1999)

What was measured:
[1] = system: CB1 receptor knockout -/- mice; test: Blood pressure of anesthesized CB1 receptor knock-out (-/-) mice; assay type: in vivo, mouse; conditions: 3 mg/kg i.v. SR141716A pretreatment
Experimental: FIG. 6. The effect of 4 cannabanoid agonists on blood pressure of pentobarbital-anesthesized CB1 receptor knock-out mice (-/- mice, open circles, n=4-6) and their genetically matched controls with intact CB1 receptors (+/+ mice, filled circles, n=4-6).
FIG. 10. The effect of abnormal cannabidiol on blood pressure in CB1 receptor knockout -/- mice. Mice were anesthesized with sodium pentobartital, 50 mg/kg i.p. and were pretreated with vehicle (open triangles) or 3 mg/kg i.v. SR141716A (filled triangles) before the i.v. injection of 20 mg/kg abnCBD.
This possibility is further supported by our findings in genetically altered `knock-out` mice, which are deficient in CB1 receptors due to selective disruption of both alleles of the gene encoding this receptor (-/- mice).

[2] = system: CB1 receptor knockout -/- mice; test: LPS-induced hypotension in CB1 receptor knockout -/- mice; assay type: in vivo, mouse; conditions: pretreatment with 3 mg/kg SR141716A; HCl

`Cc1c(C(=O)NN2CCCCC2)nn(-c2ccc(Cl)cc2Cl)c1-c1ccc(Cl)cc1` [SR141716A, HCl] was tested, and the “inhibition of abnCBD-induced hypotension” value [1] was “inhibited” and the “prevention of LPS-induced hypotension” value [2] was “inhibited; also recorded: can be prevented”.

Entries after “also recorded” stand apart in the source; their conditions may differ. Structures can show the parent of a compound that is named as a salt.
